Assay results: US8017401B2, “Method for determining redox activity and screening compounds based on redox activity” (State of Oregon acting by and through the State Board of …, priority 2005, dated 2011)

Assays:
[1] = Redox activity of activators and inhibitors of membrane-bound transport proteins (overview statement); type: physicochemical; conditions: activators and inhibitors of the sarcoplasmic reticulum calcium release channel; no reference given
[2] = Redox activity by reaction with photo-excited dye under aerobic conditions (probe reduction at 470 nm and dye photo-bleaching); type: physicochemical
[3] = 10 μM methylene blue, 100 μM NADH, 50 μM NBD-Cl, 80% dimethyl sulfoxide / 20% 1 mM Tris-HCl, pH 7.4, ryanodine 1 and 2 μM vs zero

ryanodine
redox activity (electron donor or electron acceptor) [1]: electron acceptors | rate of NBD-Cl reduction (increasing absorbance at 470 nm) [2, 3]: decreased | rate of methylene blue bleaching (decreasing absorbance at 663 nm) [2, 3]: decreased | redox activity (electron donor or electron acceptor) ([2]; conclusion from the photo-excited dye assay of the respective example): electron acceptor
